Assay results published in patent US20070249648A1, “Novel Diazaspiroalkanes and Their Use for Treatment of Ccr8 Mediated Diseases” (priority 2003, published 2007).
Structures can show the parent of a compound that is named as a salt.

Amino acid sequences for entries named in this document (tags omitted).
UniProt P51685, whole entry: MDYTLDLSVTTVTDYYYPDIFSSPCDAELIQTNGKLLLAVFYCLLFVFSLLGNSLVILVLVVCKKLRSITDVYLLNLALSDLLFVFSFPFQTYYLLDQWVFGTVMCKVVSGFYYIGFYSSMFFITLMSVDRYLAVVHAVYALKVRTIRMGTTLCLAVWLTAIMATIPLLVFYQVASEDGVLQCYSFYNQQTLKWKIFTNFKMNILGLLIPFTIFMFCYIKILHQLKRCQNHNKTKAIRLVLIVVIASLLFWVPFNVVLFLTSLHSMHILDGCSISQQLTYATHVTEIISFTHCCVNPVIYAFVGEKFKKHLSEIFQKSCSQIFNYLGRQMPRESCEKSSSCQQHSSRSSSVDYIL

Biological target: T1, human recombinant chemokine CCR8 receptor (Homo sapiens, UniProt P51685)
T1 construct: purchased Euroscreen ES-136-M; host or cells: CHO-K1 cells (membrane preparation)
Assay: CCL1 SPA Binding Assay
Experimental: Membranes from CHO-K1 cells transfected with human recombinant chemokine CCR8 receptor (ES-136-M) were purchased from Euroscreen. Membrane preparations are stored at −70C in 7.5 mM Tris-Cl pH 7.5, 12.5 mM MgCl2, 0.3 mM EDTA, 1 mM EGTA, 250 mM sucrose until used.
The CCR8 membranes ([…]) were preincubated with Wheat Germ Agglutinin SPA beads (4.05 mg/ml) in assay buffer (50 mM HEPES, 1 mM CaCl2x2H2O, 5 mM MgCl2x6H2O, 75 mM NaCl, 0.1% BSA) at pH=7.4 for 2 hours on ice. A 10-point dose-response curve (final concentrations 50 μM, 16.7 μM, 5.6 μM, 1.9 μM, 0.62 μM, 0.21 μM, 0.069 μM, 0.023 μM) was prepared by diluting compounds by serial dilution 1:3 in DMSO. In the screening plate (Polystyrene NBS plates, Costar Corning 3604) 1 μl from the DMSO solutions of compounds was transferred into each well. 1 μl of DMSO was added to the blank control wells and 1 μl unlabeled CCL1 (300 nM) was added to background control wells. 50 μl of the SPA bead-membrane mixture was added into each well. Finally, 50 μl (30 pM) ^125I CCL1 (2000 Ci/mM) was added to each well. Plates were then incubated at RT with shaking (700 rpm) for 90 minutes followed by 30 minutes at RT without shaking. The plate was read in a Wallac MicroBeta counter for 2 minutes/well.

O=C(c1ccc(Cl)cc1)N1CCC2(CCN(Cc3ccccc3Oc3ccccc3)CC2)CC1 [3-(4-chlorobenzoyl)-9-(2-phenoxybenzyl)-3,9-diazaspiro[5.5]undecane trifluoroacetate]
IC50: 0.081 µM
